Assays:
Settings in all cases: pH 7.2
[1] = system: E. coli DH5a; assay type: cell-based
Experimental: (§1) The experiments described above characterizing the activity of granulysin peptides G1-G18 relied on counting bacterial colonies on plates. This assay is quite labor intensive and would not allow evaluation of many different compounds on a number of different microbes. Therefore, we optimized an assay in which the entire procedure could be completed in a single microtiter well. Briefly, peptides are diluted in 10 mM phosphate buffer, pH 7.2 supplemented with 0.03% LB (J. Sambrook, D. W. Russell, Molecular Cloning: A Laboratory Manual (Cold Spring Harbor Laboratory Press, New York, ed. 3, 2001) pg. A2.2, Retrieved from http://openwetware.org/wiki/LB) and 25 μl is added to microtiter wells. Bacteria (25 μl) are added (˜5×10^6 colony forming units/ml) in the same buffer. After a 3-hour incubation at 37° C., 150 μl of LB is added and the plates are incubated overnight. The OD at 600 nm is read on an ELISA plate reader. The minimum inhibitory concentration (MIC) is the lowest concentration allowing no bacterial growth. The IC50 is the concentration of peptide that results in 50% growth compared to the medium.
(§2) We now describe additional peptides and their activity. The peptides have been designed, synthesized, and have been tested for lysis of E. coli and S. typhimurium (gram negative bacteria), B. cereus (gram positive bacterium). Results are shown in Table 2 along with the amino acid sequence of the peptide. Changes from the naturally occurring sequence are underlined. In general, the desired result is lysis of bacteria at low concentration (<1 μM).
(§3) In Table 2, Columns 2-7 are the MIC and IC50 (concentration required for 50% inhibition of growth) for each organism (E. coli, Salmonella, and B. cereus). The MIC (minimum inhibitory concentration) was determined as described above, in a multiwell plate assay. […] L-isomer amino acids are designated by capital letters while D-isomer amino acids are designated by lower case letters.

[2] = system: B. cereus; assay type: cell-based
Experimental: as §1, §2, §3

[3] = system: Salmonella; assay type: cell-based, S. typhimurium
Experimental: as §1, §2, §3

Row | SMILES | E. coli DH5a MIC [1] [µM] | IC50 [1] [nM] | B. cereus MIC [2] [µM] | IC50 [2] [nM] | IC50 [3] [nM] | Salmonella MIC [3] [µM]
1 | CC[C@H](C)[C@H](NC(=O)[C@@H](NC(=O)[C@H](CCCNC(=N)N)NC(=O)[C@H](CO)NC(=O)[C@H](CCC(N)=O)NC(=O)[C@H](Cc1ccc(O)cc1)NC(=O)[C@@H](CCCNC(=N)N)NC(=O)[C@@H](CCCNC(=N)N)NC(=O)[C@H](CCSC)NC(=O)[C@H](Cc1ccccc1)NC(=O)[C@H](CCCNC(=N)N)NC(=O)[C@H](CCCNC(=N)N)NC(=O)[C@H](CO)NC(=O)[C@@H](NC(=O)[C@H](CC(=O)O)NC(=O)[C@@H](N)CCCNC(=N)N)C(C)C)C(C)C)C(=O)N[C@@H](CCC(N)=O)C(=O)NCC(=O)N[C@@H](CC(C)C)C(=O)N[C@H](C(=O)O)C(C)C [Peptide G12.5, RDVSRRFMrrYQSRVIQGLV] | 5.7 | 3300 | >10 | 7700 | > 10000 | >10
2 | CC(C)[C@H](NC(=O)[C@H](CO)NC(=O)[C@H](CCCNC(=N)N)NC(=O)[C@@H](N)CCC(N)=O)C(=O)N[C@@H](CO)C(=O)N[C@@H](CC(N)=O)C(=O)N[C@@H](C)C(=O)N[C@@H](C)C(=O)N[C@H](C(=O)N[C@@H](CCCNC(=N)N)C(=O)N[C@H](C(=O)N[C@@H](CS)C(=O)N[C@@H](CCCNC(=N)N)C(=O)N[C@H](C(=O)NCC(=O)N[C@@H](CCCNC(=N)N)C(=O)N[C@@H](CO)C(=O)N[C@@H](CCCNC(=N)N)C(=O)N[C@@H](Cc1c[nH]c2ccccc12)C(=O)O)[C@@H](C)O)C(C)C)[C@@H](C)O [Peptide G13, QRSVSNAATRVCRTGRSRW, reference compound] | 2.8 | 1710 | 2.85 | 1750 | > 10000 | >10
3 | CC[C@H](C)[C@H](NC(=O)[C@@H](NC(=O)[C@H](CCCNC(=N)N)NC(=O)[C@H](CO)NC(=O)[C@H](CCC(N)=O)NC(=O)[C@H](Cc1ccc(O)cc1)NC(=O)[C@H](CCCNC(=N)N)NC(=O)[C@H](CCCNC(=N)N)NC(=O)[C@H](CCSC)NC(=O)[C@H](Cc1ccccc1)NC(=O)[C@H](CC(N)=O)NC(=O)[C@H](CCCNC(=N)N)NC(=O)[C@H](CO)NC(=O)[C@@H](NC(=O)[C@H](CC(=O)O)NC(=O)[C@@H](N)CCCNC(=N)N)C(C)C)C(C)C)C(=O)N[C@@H](CCC(N)=O)C(=O)NCC(=O)N[C@@H](CC(C)C)C(=O)N[C@H](C(=O)O)C(C)C [Peptide G12.1] | >10 | 7650 | >10 | > 10000 | > 10000 | >10
4 | CC[C@H](C)[C@H](NC(=O)[C@@H](NC(=O)[C@H](CCCNC(=N)N)NC(=O)[C@H](CO)NC(=O)[C@H](CCC(N)=O)NC(=O)[C@H](Cc1ccc(O)cc1)NC(=O)[C@H](CCCNC(=N)N)NC(=O)[C@H](CCCNC(=N)N)NC(=O)[C@H](CCSC)NC(=O)[C@H](Cc1ccccc1)NC(=O)[C@H](CC(N)=O)NC(=O)[C@H](CCCNC(=N)N)NC(=O)[C@H](CS)NC(=O)[C@@H](NC(=O)[C@H](CC(=O)O)NC(=O)[C@@H](N)CCCNC(=N)N)C(C)C)C(C)C)C(=O)N[C@@H](CCC(N)=O)C(=O)NCC(=O)N[C@@H](CC(C)C)C(=O)N[C@H](C(=O)O)C(C)C [Peptide G12, reference compound] | 2.8 | 1750 | 5.8 | 3510 | 890 | 1.4
5 | CC(C)[C@H](NC(=O)[C@H](CO)NC(=O)[C@H](CCCNC(=N)N)NC(=O)[C@@H](N)CCC(N)=O)C(=O)N[C@@H](CO)C(=O)N[C@@H](CC(N)=O)C(=O)N[C@@H](C)C(=O)N[C@@H](C)C(=O)N[C@H](C(=O)N[C@@H](CCCNC(=N)N)C(=O)N[C@H](C(=O)N[C@@H](CO)C(=O)N[C@@H](CCCNC(=N)N)C(=O)N[C@H](C(=O)NCC(=O)N[C@@H](CCCNC(=N)N)C(=O)N[C@@H](CO)C(=O)N[C@@H](CCCNC(=N)N)C(=O)N[C@@H](Cc1c[nH]c2ccccc12)C(=O)O)[C@@H](C)O)C(C)C)[C@@H](C)O [Peptide G13.1, QRSVSNAATRVSRTGRSRW] | >10 | 7450 | >10 | > 10000 | > 10000 | >10
6 | CC[C@H](C)[C@H](NC(=O)[C@@H](NC(=O)[C@H](CCCNC(=N)N)NC(=O)[C@H](CO)NC(=O)[C@H](CCC(N)=O)NC(=O)[C@H](Cc1ccc(O)cc1)NC(=O)[C@H](CCCNC(=N)N)NC(=O)[C@H](CCCNC(=N)N)NC(=O)[C@H](CCSC)NC(=O)[C@H](Cc1ccccc1)NC(=O)[C@H](CC(N)=O)NC(=O)[C@H](CCCNC(=N)N)NC(=O)[C@H](CO)NC(=O)[C@@H](NC(=O)[C@H](CC(=O)O)NC(=O)[C@H](CCCNC(=N)N)NC(=O)[C@H](Cc1c[nH]c2ccccc12)NC(=O)[C@H](CCCNC(=N)N)NC(=O)[C@H](CO)NC(=O)[C@H](CCCNC(=N)N)NC(=O)CN)C(C)C)C(C)C)C(=O)N[C@@H](CCC(N)=O)C(=O)NCC(=O)N[C@@H](CC(C)C)C(=O)N[C@H](C(=O)O)C(C)C [Peptide G20.1] | 0.7 | 430 | 0.71 | 450 | 420 | 0.7
7 | CC[C@H](C)[C@H](NC(=O)[C@@H](NC(=O)[C@H](CCCNC(=N)N)NC(=O)[C@H](CO)NC(=O)[C@H](CCC(N)=O)NC(=O)[C@H](Cc1ccc(O)cc1)NC(=O)[C@H](CCCNC(=N)N)NC(=O)[C@H](CCCNC(=N)N)NC(=O)[C@H](CCSC)NC(=O)[C@H](Cc1ccccc1)NC(=O)[C@H](CC(N)=O)NC(=O)[C@H](CCCNC(=N)N)NC(=O)[C@H](CO)NC(=O)[C@@H](NC(=O)[C@H](CC(=O)O)NC(=O)[C@H](CCCNC(=N)N)NC(=O)[C@H](Cc1c[nH]c2ccccc12)NC(=O)[C@H](CCCNC(=N)N)NC(=O)[C@H](CO)NC(=O)[C@H](CCCNC(=N)N)NC(=O)CNC(=O)[C@@H](NC(=O)[C@H](CCCNC(=N)N)NC(=O)[C@H](CO)NC(=O)[C@@H](NC(=O)[C@H](CCCNC(=N)N)NC(=O)[C@@H](NC(=O)[C@H](C)NC(=O)[C@H](C)NC(=O)[C@H](CC(N)=O)NC(=O)[C@H](CO)NC(=O)[C@@H](NC(=O)[C@H](CO)NC(=O)[C@H](CCCNC(=N)N)NC(=O)[C@@H](N)CCC(N)=O)C(C)C)[C@@H](C)O)C(C)C)[C@@H](C)O)C(C)C)C(C)C)C(=O)N[C@@H](CCC(N)=O)C(=O)NCC(=O)N[C@@H](CC(C)C)C(=O)N[C@H](C(=O)O)C(C)C [Peptide G21] | 0.35 | 230 | 1 | 200 | 210 | 0.35
8 | CC[C@H](C)[C@H](NC(=O)[C@@H](NC(=O)[C@H](CCCNC(=N)N)NC(=O)[C@H](C)NC(=O)[C@H](CCC(N)=O)NC(=O)[C@H](Cc1ccc(O)cc1)NC(=O)[C@H](CCCNC(=N)N)NC(=O)[C@H](CCCNC(=N)N)NC(=O)[C@H](CCSC)NC(=O)[C@H](Cc1ccccc1)NC(=O)[C@H](CCCNC(=N)N)NC(=O)[C@H](CCCNC(=N)N)NC(=O)[C@H](C)NC(=O)[C@@H](NC(=O)[C@H](CC(=O)O)NC(=O)[C@@H](N)CCCNC(=N)N)C(C)C)C(C)C)C(=O)N[C@@H](CCC(N)=O)C(=O)NCC(=O)N[C@@H](CC(C)C)C(=O)N[C@H](C(=O)O)C(C)C [Peptide G12.4] | 5.7 | 2850 | 5.5 | 3500 | 3510 | 5.5
9 | CC[C@H](C)[C@H](NC(=O)[C@@H](NC(=O)[C@H](CCCNC(=N)N)NC(=O)[C@H](CO)NC(=O)[C@H](CCC(N)=O)NC(=O)[C@H](Cc1ccc(O)cc1)NC(=O)[C@H](CCCNC(=N)N)NC(=O)[C@H](CCCNC(=N)N)NC(=O)[C@H](CCSC)NC(=O)[C@H](Cc1ccccc1)NC(=O)[C@H](CCCNC(=N)N)NC(=O)[C@H](CCCNC(=N)N)NC(=O)[C@H](CO)NC(=O)[C@@H](NC(=O)[C@H](CC(=O)O)NC(=O)[C@@H](N)CCCNC(=N)N)C(C)C)C(C)C)C(=O)N[C@@H](CCC(N)=O)C(=O)NCC(=O)N[C@@H](CC(C)C)C(=O)N[C@H](C(=O)O)C(C)C [Peptide G12.2] | 2.8 | 1750 | 5.8 | 3510 | 1730 | 2.8
